In one test the test system is BxPC-3 pancreatic cancer. Nature of the test: Antitumor activity, oral dosing, BxPC-3 xenograft. In kind it is in vivo, scid mice. Conditions: 125 to 250 mg/kg, in the most sensitive tumors.
Another test has as its system HaCaT cells. Nature of the test: cells. Conditions: Homo sapiens, 72 h, read-out: cell survival IC50.
The test system of test [1] is BxPC-3 pancreatic cancer xenografts. Conditions: 125 mg/kg i.p., twice a day for 5 d.
Test [2] concerns UVB-induced AKT phosphorylation in HaCaT cells and HaCaT-II,4 cells.
Another test relates to HaCat-II,4 cells. Nature of the test: cells. Conditions: Homo sapiens, 72 h, read-out: cell survival IC50.
Test [3] relates to phospho-Ser473-AKT in MiaPaCa-2 cells. Description: Cellular AKT inhibition, Western blot phospho-Ser473-AKT, MiaPaCa-2 cells. Conditions: Homo sapiens, MIA PaCa-2, read-out: pAKT inhibition (IC50), MiaPaca-2, Western blots phospho-Ser473-AKT.
Test [4] relates to MCF-7 human breast cancer xenografts. Description: Compound 104 alone or with paclitaxel, MCF-7 xenografts. It is filed as in vivo, scid mice. Conditions: 104 200 mg/kg orally twice per day for 10 days; paclitaxel 10 mg/kg i.p. every other day for 5 doses. The procedure:
Female scid mice with a s.c. implanted 60 day estradiol release pellets were injected s.c. with 10^7 MCF-7 human breast cancer cells. When the tumors reached about 10 mm^3 the mice were statified into groups of 8 mice and dosing was satrted on day 13 as indicated by the arrow (⇑) in FIG. 11.

Sequences of proteins named here, by UniProt entry; tags and fusion partners are left off. Residues count along the entry.
UniProt O15530, 459-550: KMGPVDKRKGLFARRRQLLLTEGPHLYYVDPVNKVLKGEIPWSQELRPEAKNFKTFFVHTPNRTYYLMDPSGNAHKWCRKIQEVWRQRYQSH

A further test addresses PH domain of PDK1 (Homo sapiens (Human), UniProt O15530). Nature of the test: SPR direct binding to PDK1 PH domain. Conditions: NB = no measurable binding, read-out: PDK1 PH mKD.

Where two headings read alike, the source gives them in different places.

Regarding `CCCCCCCCCCCCc1ccc(S(=O)(=O)Nc2nncs2)cc1` [Compound 104, 4-Dodecyl-N-(1,3,4-thiadiazol-2-yl)benzenesulfonamide], in the test on BxPC-3 pancreatic cancer, the “inhibition of tumor growth” value is on record as “up to 80%”. Besides, the IC50 was about 40 µM in the test with HaCaT cells, about 60 µM in the test on HaCat-II,4 cells and 10 µM in test [3]. Further, the anti-tumor activity entry in test [1] is “Significant anti-tumor activity with cessation of tumor growth and even regression”. The “UVB-induced AKT phosphorylation” value is “did not appear to affect” in test [2] (1 μM and 5 μM, UV-B 250 J/m2); “reduced UVB-induced AKT phosphorylation” in test [2] (10 μM and 20 μM, UV-B 250 J/m2, both cell lines). For the same molecule, the antitumor activity result in test [4] is “inhibited tumor growth”.
As for `CC1=NN(C(=O)c2ccccc2)C(=O)C1/N=N/c1ccc(S(=O)(=O)Nc2ncccn2)cc1` (stereo not drawn) [Compound 331], the Kd on PH domain of PDK1 turned out to be 0.17 ± 0.1 µM.

Values taken from patent publication US9320734B2, “Small molecule inhibitors of the pleckstrin homology domain and methods for using same” (Board of Regents, The University of Texas System, priority 2008, dated 2016).
